The entries are a selection whose mix differs from that of the whole data set. Some tests of the compounds listed are not included; inactive here does not mean inactive elsewhere. The source made the active and inactive calls.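 The calls were made as follows: active = inhibition above a per-plate limit, mean inhibition of low control wells plus 3 SD (cut at about 25% in these data); inactive = the rest.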
What follows are compounds tested against ADP-ribosylation factor GTPase-activating protein 1 (Rattus norvegicus) (UniProt Q62848) (assay: inhibitors of rat ARFGAP1 GAP activity, primary screen, biochemical, fluorescence polarization, GDP tracer (AID 651572;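 also: 0% = DMSO wells with enzyme and 100% = wells lacking Arfgap1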)). Conditions: Arfgap1-stimulated ARF1 GTP hydrolysis, GDP FP detection; at 16.5 µM; active compounds read high.
Outline: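 Assay system: purified rat His6-Arfgap1 residues 1-136 (GAP domain); Reagent: human Δ17 ARF1 bound to GTP; Dosing: 16.5 µM single point, 1.26% DMSO; Times: GTP hydrolysis reaction 2 h at 25 °C; Signal: FP, GDP Alexa 633 tracer displaced from anti-GDP antibody, 620/688 nm; Measure: % inhibition from polarization.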

By UniProt entry, the sequences of proteins in these tests, tags left out. Residues count along the entry.
UniProt Q62848, 1-136 limits assumed: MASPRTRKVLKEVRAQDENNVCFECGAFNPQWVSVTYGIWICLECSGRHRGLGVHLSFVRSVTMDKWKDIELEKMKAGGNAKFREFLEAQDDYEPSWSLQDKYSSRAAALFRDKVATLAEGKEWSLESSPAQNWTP

Structure (SMILES) | inhibition
O=C(NCC1(N2CCCCC2)CCCCC1)c1cccc(Cl)c1 | inactive: 11.1%
COc1cccc(C(=O)NCC2(N3CCCCC3)CCCCC2)c1 | inactive: -6.23%
COc1ccc(Cl)cc1C(=O)NCC1(N(C)C)CCCCC1 | inactive: 3.92%
COc1cc(C(=O)NCC2(N(C)C)CCCCC2)c([N+](=O)[O-])cc1OC | inactive: 3.57%
CN(C)C1(CNC(=O)c2ccc(Br)cc2)CCCCC1 | inactive: 3.53%
CN(C)c1cccc(C(=O)NCC2(N(C)C)CCCCC2)c1 | inactive: -6.44%
CC(C)Oc1ccc(C(=O)NCC2(N(C)C)CCCCC2)cc1 | inactive: 5.72%
O=C(OCCN1CCCC1)C(O)(c1ccccc1)c1ccccc1 | inactive: -1.46%
COc1ccc(Br)c(C(=O)NCC2(N3CCCCC3)CCCCC2)c1 | inactive: 8.98%
C=C(C)C#CC(O)(C(=O)OC1CCN(C)CC1)c1ccccc1 (stereo unspecified) | inactive: -0.71%
O=C(OC1CN2CCC1CC2)C(CO)(c1ccccc1)c1ccccc1 (stereo unspecified) | inactive: 1.37%
Cc1ccc(C(=O)NCC2(N3CCCCC3)CCCCC2)cc1 | inactive: 3.49%
CC(C)N1C(=O)CC2(CCN(CCOC(=O)C(O)(c3ccccc3)c3ccccc3)CC2)C1=O | inactive: -0.86%
CCN(CC)CC(C)C(C)OC(=O)C(O)(c1ccccc1)c1ccccc1 (stereo unspecified) | inactive: -3.88%
COc1cc(SC)ccc1C(=O)NCC1(N(C)C)CCCCC1 | inactive: 0.71%
CN1[C@@H]2CC[C@H]1CC(OC(=O)C(O)(c1ccccc1)c1ccccc1)C2 (stereo partly specified) | inactive: -1.89%
O=C(NCC1(N2CCCCC2)CCCCC1)c1cc([N+](=O)[O-])ccc1Cl | inactive: -7.5%
Cc1cc(C(=O)NCC2(N3CCCCC3)CCCCC2)ccc1[N+](=O)[O-] | inactive: 9.17%
CCN1CCCC(OC(=O)C2(O)c3ccccc3C=Cc3ccccc32)C1 (stereo unspecified) | inactive: 15.2%
O=C(NCC1(N2CCCCC2)CCCCC1)c1cccc(Br)c1 | inactive: 11%
COc1ccc(C(=O)NCC2(N(C)C)CCCCC2)cc1 | inactive: 13.1%
C=CCN1CCN(CCOC(=O)C(O)(c2ccccc2)c2ccccc2)CC1 | inactive: 11.1%
O=C(NCC1(N2CCCCC2)CCCCC1)c1cc(F)c(F)cc1Cl | inactive: -0.89%
Cc1ccccc1C(=O)NCC1(N2CCCCC2)CCCCC1 | inactive: 11.7%
CN(C)C1CCCC1OC(=O)C(O)(c1ccccc1)c1ccccc1 (stereo unspecified) | inactive: 7.78%
CN(C)c1ccc(C(=O)NCC2(N(C)C)CCCCC2)cc1 | inactive: 0.05%

Source: PubChem BioAssay AID651572 (The Scripps Research Institute Molecular Screening Center, 2012)
